Consider two substances from patent publication US20100040597A1.

Test [1] has as its target soluble TM (thrombomodulin). The experiment in a line: cuvette biosensor, thrombin mutant immobilised on NHS-activated CM dextran (about 1,365 arc), 50 nM soluble TM, 10 min.
The target in test [2] is soluble TM (thrombomodulin). In words: cuvette biosensor, 50 nM soluble TM, normalised to 1000 arc sec of immobilised thrombin mutant.
For test [3], the target named is soluble TM (thrombomodulin). In words: cuvette biosensor, thrombin mutant immobilised on NHS-activated CM dextran (about 1,800 arc), 50 nM soluble TM, 10 min.

Substance “69Q65A43A205A thrombin (from UniProt P00734 315-363; P00734 364-622) (enzyme)” yielded a TM adsorbed after 10 minutes in test [1] of 8 arc sec. In test [2], this substance showed a TM adsorbed, immobilized amount set to 1000 arc sec of 5.8 arc sec.

With “65A43A205A thrombin (from UniProt P00734 315-363; P00734 364-622) (enzyme)”, the TM adsorbed after 10 minutes in test [3] was found to be 18 arc sec. In addition, the TM adsorbed, immobilized amount set to 1000 arc sec in test [2] worked out at 10 arc sec.
